Literature values, collected in patent US20040116535A1, “Use” (priority 2001, published 2004).

Settings: 200 mg 3 times daily; at the end of the 8 hour dose interval; cited from earlier work

1-(2,6-dimethylphenoxy)-propanamine [mexiletine]
patients with subtherapeutic plasma level: ~50%
